Reference: publication PMC12638251, “Uridine-sensitized screening identifies demethoxy-coenzyme Q and NUDT5 as regulators of nucleotide synthesis” (Nature Metabolism, 2025)

Key:
[1] = target: PPAT (endogenous, human) (human (endogenous in 293T, K562 and other human cell lines)) (UniProt Q06203); assay: native gel or EMSA; parallel native PAGE (4–16% gel) of human cell lysates in 1× Native Buffer with 1% digitonin, immunoblot for NUDT5 and PPAT; K562 (wild type, NUDT5 KO clones, KO clones with cDNA complementation) and other cell lines; untreated
[2] = target: NUDT5 (endogenous, human) (human (endogenous in 293T, K562, HeLa and other human cell lines)) (UniProt Q9UKK9); assay: as above

| Substance | percent of NUDT5 associated to PPAT [1] [%] | stoichiometry N [2] |
| --- | --- | --- |
| NUDT5 (endogenous, human) (from UniProt Q9UKK9 1-219) (enzyme; other documents disagree on this pair) | 33 | – |
| NUDT5 (endogenous, human) (from UniProt Q9UKK9 1-219) (enzyme) | – | 2 |
